## Ab-14 heavy chain CDR variants: yeast mating affinities

All variants were tested on one target, the spike HR2 peptide PDVDLGDISGINAS (SARS-CoV-2).

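This is the validation round: designs drawn from the data on random variants, tested in the same kind of assay. Several design methods are mixed in this list. The scFvs were displayed on barcoded MATa yeast, the peptide on MATalpha yeast. Mating (16 h, 30 °C) was followed by selection of diploids and sequencing of their barcodes. Each replicate has its own calibration line, from reference interactions of the BCL2 family. There are six technical replicates.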

Parent scFv Ab-14: VH joined to VL by three GGGGS repeats. Changes lie in the heavy chain CDRs alone.
VH: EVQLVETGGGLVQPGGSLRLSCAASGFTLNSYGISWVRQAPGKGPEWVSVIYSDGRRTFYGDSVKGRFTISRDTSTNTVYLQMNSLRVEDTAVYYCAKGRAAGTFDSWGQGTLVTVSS
VL: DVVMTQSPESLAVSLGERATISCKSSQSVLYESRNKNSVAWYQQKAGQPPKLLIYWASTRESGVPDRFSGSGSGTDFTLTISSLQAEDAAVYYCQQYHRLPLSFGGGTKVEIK

Each variant is given by its three heavy chain CDRs, as the data file delimits them; those of the parent are GFTLNSYGIS, VIYSDGRRTFYGDSVK, GRAAGTFDS. Numbers give log10(Kd / nM), so 0 is 1 nM and 3 is 1 µM. Smaller is tighter. The mean shown is taken over the replicates in which the pair was detected. "no signal" marks a missing value. The strain was present, yet no cells mated with the target were sequenced in any replicate, which points to weak or no binding. Values of this round are not directly comparable with the first-round values of the same sequences. The authors' rule: three or more of the six replicates give a measured affinity, fewer mean a poor binder. Background: pairings of all heavy chain designs with three empty control strains gave a value in 1% of cases (median 2.08, 5th percentile 0.84). Values in that range, when seen in few replicates, are hard to tell from nonspecific mating.

| log10 Kd (nM), mean | detected | CDR-H1 | CDR-H2 | CDR-H3 |
|---|---|---|---|---|
| no signal | 0/6 | GFDLDEYGIS | VIYADGVRMAYIDSVK | GNWSGRDMY |
| 1.20 | 6/6 | GFTLNEYGIS | VIYSDGRRTFYVDSVK | GRFAGTFDS |
| -0.29 | 6/6 | GFNLDEYGIS | VIYADGMRTAYADSVK | GQVAGTFDV |
| -0.04 | 6/6 | GFDLNEYGIS | VIYADGKRTSYVDSVK | GNVAGTFDV |
| -0.42 | 6/6 | GFDLDEYGIS | VIYADGRRTAYADDVK | GNVAGTFDI |
| -0.63 | 6/6 | GFNLNEYGIS | VIYADGVRTFYADSVK | GQVAGTFDM |
| 0.76 | 6/6 | GFDLDEYGIS | VIYADGQRTAYADDVK | GENAGTFDL |
| 0.51 | 6/6 | GFNLNSYGIS | VIYSDGRRTFYGDSVK | GSQAGTFDS |
| -0.27 | 6/6 | SFDLNSYGIS | VIYSDGRRTAYGDSVK | GRTAGTFDS |
| no signal | 0/6 | GFNLDEYGIS | VIYADGVRTAYVDKVK | GFGQVDSLI |
| no signal | 0/6 | GFNLDEYGIS | VIYADGSRQFYVDTFK | GNLVGLIVN |
| 0.29 | 6/6 | SFNLEEYGIS | VIYADGKRSVYADSVK | GHISGWFAM |
| -0.04 | 6/6 | GFDLDEYGIS | VIYADGMRTFYADNVK | GEVAGTFDV |
| 0.39 | 1/6 | GFTLNEYGIS | VIYFDGRRTFYGDSVK | GRLAGTFDS |
| no signal | 0/6 | GFDLNSYGIS | VIYSDGRRTFYGWSVK | GRAAGWFNS |
| 0.07 | 6/6 | GFDLNMYGIS | VIYSDGMRTFYGDSVK | GRTAGTFDS |
| 1.17 | 6/6 | GFTLESYGIS | VIYSDGRRTFYGDDVK | GRTAGTFDS |
| no signal | 0/6 | GFTLNEYGIS | VIYSDGRRTFYGDSVK | GRNAGTFIS |
| 0.27 | 6/6 | GFTLNSYGIS | VIYSDGKRTFYSDSVK | GKTAGTFDV |
| -0.24 | 6/6 | GFDLNEYGIS | VIYADGMRTAYLDSVK | GNVAGTFDL |
| -0.03 | 6/6 | GFTLNEYGIS | VIYSDGRRTFYTDSVK | GRTAGTFDV |
| 1.52 | 3/6 | GFTLNDYGIS | VIYSDGRRTFYDDSVK | GRAAGTFES |
| no signal | 0/6 | GFTLESYGIS | VIYADGRRTFYGDHVK | GRAAGTFES |
| -0.71 | 6/6 | GFDLNEYGIS | VIYADGRRTAYADSVK | GQAAGTFTL |
| 0.67 | 6/6 | GFTLNSYGIS | VIYSDGRRTFYDDSVK | GQVAGTFDD |
| -0.10 | 6/6 | GFDLNEYGIS | VIYADGKRTAYSDSVK | GGNAGTFDM |
| -0.29 | 6/6 | GFNLNEYGIS | VIYADGKRTFYTDDVK | GEVAGTFDL |
| -0.33 | 6/6 | GFDLNEYGIS | VIYADGMRTFYTDSVK | GNQAGTFDV |
| no signal | 0/6 | GFTLNEYGIS | VIYSDGRRTFYGDSVK | GRMAGTFFS |
| 0.04 | 6/6 | GFELNSYGIS | VIYSDGRRTFYADSVK | GNVAGTFDS |
| no signal | 0/6 | GFTLNSYGIS | VIYSDGRRTFYSDWVK | GRAGGTFDS |
| 1.26 | 3/6 | GFELNSYGIS | VIYSDGQRTFYVDDVK | GRTAGTFDS |
| no signal | 0/6 | GFTLNNYGIS | VIYSDGRRTFYGDEVK | GRAAGTFDS |
| 1.07 | 6/6 | GFELNSYGIS | VIYSDGKRTFYIDSVK | GQAAGTFDS |
| no signal | 0/6 | GFDLGEYGIS | VIYADGERKSYAQKVK | GKNGAISYV |
| no signal | 0/6 | GFDLDEYGIS | VIYADGQRTVYADSVK | GEVAGTFDV |
| -0.21 | 6/6 | GFDLNEYGIS | VIYADGMRTFYADSVK | GTAAGTFDQ |
| no signal | 0/6 | GNTLNEYGIS | VIYSDGRRTFYTDSVK | GRFAGTFDS |
| no signal | 0/6 | GDFLDEYGIS | VIYADGMRSSYANKVK | GHNFGLKMV |
| 0.96 | 6/6 | GFQLNSYGIS | VIYSDGRRTFYADSVK | GRMAGTFDS |
| 1.15 | 6/6 | GKDLNSYGIS | VIYSDGRRTFYGDSVK | GRTAGTFDS |
| no signal | 0/6 | GFQLNEYGIS | VIYADGIRREYADKVK | GGINASFDV |
| 0.48 | 6/6 | GFDLNEYGIS | VIYADGKRTAYADTVK | GNVAGTFDV |
| 1.51 | 6/6 | GFTLKSYGIS | VIYADGRRTFYGDSVK | GRAAGTFDN |
| -0.72 | 6/6 | GFDLNEYGIS | VIYADGQRTFYADSVK | GEHAGTFDI |
| no signal | 0/6 | GFNLNEYGIS | VIYADGRRYAYIDSVK | GIVVAKNLY |
| 0.25 | 4/6 | GFTLDSYGIS | VIYSDGRRTFYGDEVK | GRTAGTFDS |
| 2.26 | 3/6 | RFTLNSYGIS | VIYSDGRRTAYGDSVK | GRAAGTFDS |
| -0.44 | 6/6 | GFDLNEYGIS | VIYADGVRTFYADSVK | GNTAGTFLS |
| -0.08 | 6/6 | GFNLNEYGIS | VIYADGRRTFYADSVK | GGSAGTFDV |
| 1.76 | 5/6 | GFDLNEYGIS | VIYADGMRTAYSDSVK | GENAGTFVV |
| no signal | 0/6 | GFTLNSYGIS | VIYSDGRRTFYGDSVK | GNAALIFDS |
| 1.00 | 1/6 | GFQLDEYGIS | VIYADGVRSSYVDDVK | GEGTGAFSV |
| -0.20 | 6/6 | GFNLNEYGIS | VIYADGRRTFYADSVK | GEIAGTFDF |
| 0.07 | 6/6 | GFSLNSYGIS | VIYSDGRRTFYADSVK | GKNAGTFDT |
| no signal | 0/6 | GFDLNQYGIS | VIYEDGRREFYSDSVK | GRAAGFFDS |
| 1.76 | 6/6 | GFTLNSYGIS | VIYSDGRRTFYGDDVK | GKAAGTFDS |
| 0.20 | 6/6 | GFDLNNYGIS | VIYSDGRRTFYGDSVK | GREAGTFDT |
| 3.14 | 1/6 | GFDLAEYGIS | VIYADGSRTAYNQNVK | GTGGDSFDF |
| 0.80 | 6/6 | GFDLNEYGIS | VIYADGMRTAYVDKVK | GNNAGTFDV |
| 0.47 | 6/6 | GFELNSYGIS | VIYSDGRRTFYADSVK | GVTAGTFDS |
| 0.54 | 6/6 | GFELNSYGIS | VIYSDGRRTFYADSVK | GWMAGTFDS |
| -0.12 | 6/6 | GFDLNEYGIS | VIYADGRRTQYIDSVK | GNVAGTFDT |
| -0.01 | 6/6 | GFDLNEYGIS | VIYADGRRTQYIDSVK | GNQAGTFDS |
| -0.62 | 6/6 | GFDLNEYGIS | VIYADGVRTAYIDSVK | GQNAGTFDI |
| 1.65 | 6/6 | GYTLNSYGIS | VIYADGRRTFYGDSVK | GRAAGTFDS |

The first 8 variants above that were never detected:

| CDR-H1 | CDR-H2 | CDR-H3 | log10 Kd (nM), mean | detected |
|---|---|---|---|---|
| GFDLDEYGIS | VIYADGVRMAYIDSVK | GNWSGRDMY | no signal | 0/6 |
| GFNLDEYGIS | VIYADGVRTAYVDKVK | GFGQVDSLI | no signal | 0/6 |
| GFNLDEYGIS | VIYADGSRQFYVDTFK | GNLVGLIVN | no signal | 0/6 |
| GFDLNSYGIS | VIYSDGRRTFYGWSVK | GRAAGWFNS | no signal | 0/6 |
| GFTLNEYGIS | VIYSDGRRTFYGDSVK | GRNAGTFIS | no signal | 0/6 |
| GFTLESYGIS | VIYADGRRTFYGDHVK | GRAAGTFES | no signal | 0/6 |
| GFTLNEYGIS | VIYSDGRRTFYGDSVK | GRMAGTFFS | no signal | 0/6 |
| GFTLNSYGIS | VIYSDGRRTFYSDWVK | GRAGGTFDS | no signal | 0/6 |

The measurements come from Li et al. 2023 (doi:10.1038/s41467-023-39022-2) through the FLAb antibody collection.